# Experimental data reported in the Kinase Knowledgebase extract (Sharma et al. 2016).
# Amino acid sequences for entries named in this document (tags omitted). A change or cut given only in a name is not applied to a line headed by its entry.
# UniProt O00329: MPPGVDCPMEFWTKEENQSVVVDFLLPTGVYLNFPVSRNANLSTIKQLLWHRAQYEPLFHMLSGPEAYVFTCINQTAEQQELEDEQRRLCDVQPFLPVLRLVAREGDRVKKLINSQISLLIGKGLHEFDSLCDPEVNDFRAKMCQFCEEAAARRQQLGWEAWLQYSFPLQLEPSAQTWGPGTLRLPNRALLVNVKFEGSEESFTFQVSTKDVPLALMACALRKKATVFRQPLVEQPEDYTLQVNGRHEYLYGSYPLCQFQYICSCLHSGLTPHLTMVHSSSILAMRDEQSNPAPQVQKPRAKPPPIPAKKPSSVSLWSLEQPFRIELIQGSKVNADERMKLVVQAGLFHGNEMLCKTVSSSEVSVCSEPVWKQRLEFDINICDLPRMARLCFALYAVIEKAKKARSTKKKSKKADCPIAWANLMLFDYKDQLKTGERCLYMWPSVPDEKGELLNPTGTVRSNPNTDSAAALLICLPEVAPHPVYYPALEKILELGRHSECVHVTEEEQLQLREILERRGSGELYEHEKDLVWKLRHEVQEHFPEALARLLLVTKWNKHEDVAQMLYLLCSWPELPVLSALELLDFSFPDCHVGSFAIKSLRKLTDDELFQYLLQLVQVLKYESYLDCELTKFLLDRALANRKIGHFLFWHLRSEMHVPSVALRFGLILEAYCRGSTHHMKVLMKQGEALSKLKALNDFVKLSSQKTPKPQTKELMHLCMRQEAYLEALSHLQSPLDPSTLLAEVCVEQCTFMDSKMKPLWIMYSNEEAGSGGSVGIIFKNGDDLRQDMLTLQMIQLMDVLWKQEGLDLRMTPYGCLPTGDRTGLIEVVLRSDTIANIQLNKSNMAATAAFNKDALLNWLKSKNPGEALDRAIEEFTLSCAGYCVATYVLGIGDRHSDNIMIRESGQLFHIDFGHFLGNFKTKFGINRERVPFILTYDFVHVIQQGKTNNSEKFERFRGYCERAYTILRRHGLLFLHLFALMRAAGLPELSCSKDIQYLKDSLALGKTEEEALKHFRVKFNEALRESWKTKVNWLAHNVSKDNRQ
# Target: PIK3CD (Human) (UniProt O00329)
# Assay: Assessment of PIK3CD Kinase Activity
row,IC50,Compound
1,500 to 1500 nM,COc1cc(COc2cc3cccc(C)c3nc2-c2ccccc2C)cc(OC)c1
2,50 to 250 nM,Cc1ccccc1-c1nc2c(C)cccc2cc1CNc1ncnc2[nH]nc(I)c12
